According to patent publication US5278143A, “Prophylactic and therapeutic methods for treating interleukin-mediated edemas” (Trustees of Boston University, priority 1991, dated 1994):
“Also recorded” adds a separate entry of the source.

Test system: IL-2 induced edema
Assay: IL-2 induced vascular leak syndrome, organ wet to dry (W/D) weight ratios
Assay type: in vivo, rats

Interleukin-2: lymphokine which mediates the proliferation of T-cells; used to induce vascular leak syndrome
Kidney wet to dry ratio (renal edema) (10^5 U/l Interleukin-2 alone, FIG. 2): did not produce any significant renal edema
Spleen wet to dry ratio (splenic edema) (10^5 U/ml Interleukin-2 alone, FIG. 1): did not produce any significant splenic edema
Liver wet to dry ratio (hepatic edema) (10^5 U/ml Interleukin-2 alone, FIG. 3): did not produce any significant hepatic edema
Heart wet to dry weight ratio (cardiac edema) (10^5 U/ml Interleukin-2 alone, FIG. 4): did not produce any significant cardiac edema
Lung wet to dry weight ratio (pulmonary edema) (10^5 U/ml Interleukin-2 alone, FIG. 5): did not produce any significant pulmonary edema
Spleen wet to dry ratio (splenic edema) (10^6 U/ml IL-2, FIG. 1, listed as IL-2): failed to induce splenic edema; also recorded: No significant changes over controls
Kidney wet to dry ratio (renal edema) (10^6 U/ml IL-2, FIG. 2, listed as IL-2): produced a significant increase in edema; also recorded: produces edema
Liver wet to dry ratio (hepatic edema) (10^6 U/ml IL-2, FIG. 3, listed as IL-2): produced no significant increase in edema; also recorded: No significant changes over controls
Lung wet to dry weight ratio (pulmonary edema) (10^6 U/ml IL-2, FIG. 5, listed as IL-2): produced a significant (p<0.01) increase in edema; also recorded: produces edema
Heart wet to dry weight ratio (cardiac edema) (10^6 U/mml IL-2, FIG. 4, listed as IL-2): produced a significant (p<0.01) increase in edema; also recorded: produces edema
